## scFv variants of Ab-14 (light chain) against a SARS-CoV-2 spike peptide

Source: Li et al. 2023 (doi:10.1038/s41467-023-39022-2), MIT Lincoln Laboratory and A-Alpha Bio; data file from the FLAb repository.

The target is the same throughout: PDVDLGDISGINAS, from the HR2 region of SARS-CoV-2 spike.

Parent: Ab-14, a human scFv built as VH, three GGGGS repeats, VL. Only the CDRs of the light chain vary.
VH: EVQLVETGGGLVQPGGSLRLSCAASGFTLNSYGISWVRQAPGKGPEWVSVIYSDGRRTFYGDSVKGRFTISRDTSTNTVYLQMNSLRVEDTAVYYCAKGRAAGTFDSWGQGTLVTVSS
VL: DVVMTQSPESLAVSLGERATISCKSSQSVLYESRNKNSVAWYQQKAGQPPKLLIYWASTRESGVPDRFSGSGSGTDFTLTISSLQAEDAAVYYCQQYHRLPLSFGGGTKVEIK

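Phage display of a naive human antibody library on the peptide gave the parent. Designed CDR sequences, proposed from the first random library and measured here. Group labels follow the data file (Ctrl: baseline library sampled from a position-specific scoring matrix, with some repeated check sequences; Rand: our label for a block that the file lists under HC and that is probably the random mutants of the ten best first-round binders; En: ensemble of fine-tuned language models; GP: Gaussian process model; HC: hill climbing; Gen: genetic algorithm; Gibbs: Gibbs sampling; a sequence that several methods proposed may carry one label only). AlphaSeq pools MATa yeast showing the antibodies with MATalpha yeast showing the peptide. Mating (16 h, 30 °C) was followed by selection of diploids and sequencing of their barcodes. Each replicate has its own calibration line, from reference interactions of the BCL2 family. The assay was run in six technical replicates.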

The parent's light chain CDRs are KSSQSVLYESRNKNSVA, WASTRES, QQYHRLPLS; each variant's own CDRs replace them letter for letter.
Numbers give log10(Kd / nM), so 0 is 1 nM and 3 is 1 µM. Smaller is tighter.
"nd" means that the variant was in the library but no mating with the target was seen in that replicate; the authors take this as a sign of poor binding, and no number exists.
Three control strains display no target. For all light chain designs, 4% of the pairings with them gave a signal, with a median of 2.64 and one signal in twenty below 1.59, so weak values seen in few replicates may be background.

KFSQMVNYESTHVNAVA, QMSTREE, QQYHRLPLS [En_HC]: 0.09, 0.12, 0.10, -0.17, -0.04, 0.02.
KLSLSMSYSWEGTRHIA, NGSNRCH, QQYHRLPLI [En_Gibbs]: 1.41, 1.41, 1.04, 1.62, 1.34, 1.55.
KVEMSVPYEERNKNSVA, HASVRES, QQYHRLPLS [GP_Gibbs]: 0.25, -0.01, 0.28, 0.58, 0.19, 0.09.
MIAQGMRGVGRNKNSVA, NAQTRES, QHYHRLPLS [En_HC]: 1.19, 0.83, 1.03, 0.93, 0.80, 0.93.
MIHEMMGLVSHKQSSIA, DNSTRYD, QQYDRLPLS [En_Gen]: 0.86, 0.47, 1.84, nd, 1.24, 0.81.
MISGSVMQESRLKNSVA, QTTTRES, QQYDRLPLS [En_HC]: 0.74, 0.52, 0.39, 0.29, 0.40, 0.76.
KLSQSVLYESRWKNSVA, GASQRES, QQYHRLPLS [GP_HC]: 0.38, 0.79, 0.26, 0.32, 0.03, 0.28.
KSSQSVLYESDNKNSVA, WASTRES, QQYHRLPLI [Ctrl]: nd, nd, nd, nd, nd, nd.
NVGQSMLGESRNRNSVA, HQSTRED, QHYHRLPLS [En_HC]: 0.60, 0.73, 0.98, 0.99, 1.01, 0.82.
KSSLSVLYESRNKNAVA, AASTRES, KQYHRLPLS [Ctrl]: 0.69, 0.20, 0.02, -0.12, 0.39, 0.88.
KSSQSDTYESRNQNSVA, MASTRES, QQYHRLPLS [Ctrl]: 1.26, 1.73, 1.12, 0.51, 0.44, 1.70.
TLMMQPTEQRDNKHAVA, DNNQRDR, QQYMRLPLS [En_Gibbs]: 0.14, 0.02, -0.25, -0.08, -0.14, 0.07.
HISSMDMHDGGIMHSVA, DTKITER, QQYMRLPLS [En_Gibbs]: 0.55, 0.55, 0.48, 0.58, 0.72, 0.64.
KLSQLGLYGQRNKMSVA, QASQRES, QQYHRLPLS [GP_Gibbs]: -0.08, 0.18, 0.01, 0.07, -0.24, -0.10.
KLSMITGHMSVEKNNVA, EMETREN, QQYDRLPLS [En_Gen]: 1.58, 1.62, 0.98, 1.96, 2.69, 1.18.
MLSQMFGLGMKAKNSVA, QASMRFN, QQYDRLPLI [En_Gen]: nd, 1.14, nd, nd, 1.33, 2.16.
KLYQSVLYESRNKNSVA, HASTRED, QQYHRLPLS [GP_HC]: -0.14, -0.24, -0.20, -0.49, -0.34, -0.12.
KVSWSVLYESHNKNSVA, NASTRMS, QQYHRLPLS [GP_HC]: 0.00, 0.09, -0.15, -0.21, -0.13, 0.05.
FLTYAQDQTGLQGNAIA, QVNLKEN, QQYYRLPLA [En_Gibbs]: nd, nd, nd, nd, nd, nd.
KVSQSNLYESRNKNSVA, NASTRES, QSYHRLPLS [GP_Gen]: 0.34, 0.12, 0.06, -0.21, -0.04, 0.19.
TISQLMLYESRNKNNVA, GTSTREQ, QCYHRLPLS [En_HC]: 1.95, nd, 0.90, 0.90, 3.81, 4.00.
HLGGLMTWEEKARNSVA, QQNTRVE, QQYHRLPLS [En_HC]: 0.73, 0.35, 0.94, 0.48, 0.35, 0.58.
IIDAIMFHGNKRANSIA, QASERVN, QQYHHLPLT [En_Gen]: 0.65, 0.64, 0.47, 0.54, 0.80, 0.72.
KVVKMKSEGDYHAANVA, NANLASD, QQYYRLPLI [En_Gibbs]: 0.69, 1.55, 0.08, 1.33, 0.68, 0.95.
MMSQVWGMGQRHRNNVA, QTSTREE, QQYDRLPLI [En_Gen]: 0.69, 0.07, 0.30, 0.22, -0.05, 0.36.
KSDIWYLYESRNKNSVA, EASTRES, QQYHRLPLS [Rand]: 0.44, 0.38, 0.16, 0.24, 0.28, 0.37.
KFSPSVLYESRQKNSVA, NASTRES, QQYHRLPLS [GP_HC]: -0.19, -0.03, -0.30, -0.14, -0.38, 0.00.
KISQFVNFEGKNKNSVA, QMSTRES, QQYDRLPLS [En_HC]: 0.28, 0.35, 0.38, 0.19, 0.39, 0.50.
KISQMSAIESITHNSVA, QTSTRES, QQYDRLPLS [En_HC]: 1.05, 0.99, 2.30, 2.33, 2.07, 1.40.
KLGGESYNSTYAMDAVA, DQNTAYE, QHYSRLPLT [En_Gibbs]: nd, nd, nd, nd, nd, nd.
KVEQSMDYESRNVNSVA, NASQRLK, QQYHRLPLS [GP_Gibbs]: 0.47, 1.08, 0.34, 0.74, 0.64, 0.73.
KSSQSVLVESNNKNSVA, WASTRES, QQYHRLPLS [Ctrl]: nd, 1.89, 2.78, 1.90, 2.48, 1.68.
KSSISYLYESENKSSVA, EASQRES, QQYHRLPLS [GP_HC]: 1.17, 1.79, 1.93, 2.75, 1.88, 1.67.
KISQSFLMESRNKNSVA, NASTRIW, QQYHRLPLS [GP_Gibbs]: 0.46, 0.23, 0.79, 0.14, 0.43, 0.34.
ISSQGWLYESRNKNSVA, GASTRED, QQYHRLPLS [GP_HC]: -0.21, -0.56, -0.78, -0.37, -0.85, -0.47.
KSSISSLYESRNKNSVA, EASTRES, QQYHRLPLM [GP_HC]: 0.51, 0.56, 0.50, 0.52, 0.64, 0.75.
KSSQRVRYESRNVNSVA, WGSTRMS, QQYSRLPLS [Ctrl]: nd, nd, 2.88, nd, 2.99, 2.70.
KVMQSQLYESRNKNSVA, NASTRES, QQYHRLPLS [GP_Gen]: 0.21, -0.01, 0.13, -0.30, 0.07, 0.16.
FLAMALDQGILIKNNIA, SDNLREN, QQYERLPLI [En_Gibbs]: nd, nd, nd, 0.31, nd, 1.84.
KSSKSVLFESRNKNSVA, EASTRES, QQYHRLPLS [GP_HC]: 1.53, 1.41, 1.23, 1.25, 1.40, 1.35.
KSLQSTLYESRNKNSVA, HASTRED, QQYHQLPLS [GP_HC]: 0.03, -0.01, -0.22, -0.34, -0.26, -0.09.
HVSGLYTDESVRWYNIA, ETSHVEM, QQYERLPLI [En_Gibbs]: 1.03, 1.07, 0.90, 2.31, 1.86, 1.78.
MISQLMNMGQFAINSVA, QATIRNN, QQYDRLPLI [En_Gen]: nd, nd, 1.13, 2.97, 2.90, 1.96.

Excerpt, the final 7 entries:

CDR-L1	CDR-L2	CDR-L3	group	replicates, log10 nM
KSSQRVRYESRNVNSVA	WGSTRMS	QQYSRLPLS	Ctrl	nd, nd, 2.88, nd, 2.99, 2.70
KVMQSQLYESRNKNSVA	NASTRES	QQYHRLPLS	GP_Gen	0.21, -0.01, 0.13, -0.30, 0.07, 0.16
FLAMALDQGILIKNNIA	SDNLREN	QQYERLPLI	En_Gibbs	nd, nd, nd, 0.31, nd, 1.84
KSSKSVLFESRNKNSVA	EASTRES	QQYHRLPLS	GP_HC	1.53, 1.41, 1.23, 1.25, 1.40, 1.35
KSLQSTLYESRNKNSVA	HASTRED	QQYHQLPLS	GP_HC	0.03, -0.01, -0.22, -0.34, -0.26, -0.09
HVSGLYTDESVRWYNIA	ETSHVEM	QQYERLPLI	En_Gibbs	1.03, 1.07, 0.90, 2.31, 1.86, 1.78
MISQLMNMGQFAINSVA	QATIRNN	QQYDRLPLI	En_Gen	nd, nd, 1.13, 2.97, 2.90, 1.96

Of ten entries with the parent sequence, four were seen in most replicates (averages 0.34 to 2.37), three in one and three in none, so single entries are noisy.
A sequence measured in both rounds can read differently, since the two assays cover different ranges.
The authors averaged sequences with at least three values out of six and counted those with two or fewer as poor binders.